System: E. faecalis UNT-047 VRE
Assay: microbe, parasite or virus in culture
Settings: Enterococcus faecalis

CCC[C@@H]1C[C@@H](C(=O)N[C@@H]([C@H]2O[C@H](SC)[C@H](O)[C@@H](O)[C@H]2O)[C@H](C)Cl)N(C)C1 [Clindamycin, clindamycin, reference compound] gave an MIC greater than 32 µg/mL.

From patent publication US11566039B2, “Lincosamide antibiotics and uses thereof” (President and Fellows of Harvard College, priority 2017, dated 2023)
